Literature values in article PMC7849054.
Like-named read-outs stand apart in the source and are kept apart here.

Tests used:
[1] = target: melittin (Apis mellifera) (UniProt P01501)
[2] = target: melittin (Apis mellifera) (UniProt P01501); remark: listed apart in the source
beta-endorphin [3] = target: beta-endorphin (UniProt P01189); experiment: PLIMSTEX
beta-endorphin [4] = target: beta-endorphin (UniProt P01189); experiment: dPLIMSTEX

In the case of Calmodulin (from UniProt P0DP23), the Kd [1] is given as 0.003 µM, the Kd [2] is given as 0.0046 µM and the Kd (beta-endorphin [3]) is given as 4.5 µM. The Kd (beta-endorphin [4]) was 4.9 µM.
